The text below walks through data of patent US20020146810A1.

Sequences of proteins named here, by UniProt entry; tags and fusion partners are left off.
UniProt P25103, whole entry: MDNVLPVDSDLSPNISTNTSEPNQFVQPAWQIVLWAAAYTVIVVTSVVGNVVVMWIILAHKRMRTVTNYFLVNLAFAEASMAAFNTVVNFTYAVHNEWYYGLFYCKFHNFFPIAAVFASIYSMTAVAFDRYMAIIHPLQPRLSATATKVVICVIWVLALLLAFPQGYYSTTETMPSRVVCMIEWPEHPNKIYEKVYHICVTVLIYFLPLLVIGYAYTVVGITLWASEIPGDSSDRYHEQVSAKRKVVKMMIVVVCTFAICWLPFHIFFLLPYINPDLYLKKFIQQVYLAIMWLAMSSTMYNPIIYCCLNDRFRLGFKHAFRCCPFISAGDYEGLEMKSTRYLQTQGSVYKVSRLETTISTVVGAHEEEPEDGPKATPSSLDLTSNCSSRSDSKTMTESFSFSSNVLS

The target in the test is neurokinin-1 receptor (NK-1) (human) (UniProt P25103). The test is described as follows: cell-based or functional assay.

As to “substance P (from UniProt P20366 58-68) (peptide)”, the reduction of SP-induced β-PPT-I mRNA by 10 nM NK-1-specific antagonist CP-99,994 is 7 fold, the β-PPT-I mRNA (quantitative RT-PCR) in BM stroma stimulated with 1 nM SP for 16 h (molecules/µg total RNA) came out at 284 and the β-PPT-I mRNA (quantitative RT-PCR) in BM stroma stimulated with 1 nM SP in the presence of 10 nM NK-1-specific antagonist CP-99,994 (molecules/µg total RNA) worked out at 42.
